In patent publication US20040180003A1, “Methods of screening for caloric restriction mimetics and reproducing effects of caloric restriction” (priority 2003, published 2004):

Test system: hepatic gene expression

CN(CCOc1ccc(CC2SC(=O)NC2=O)cc1)c1ccccn1 (centres unmarked) [Rosiglitazone]
average fold change in specific mRNA: EST (GenBank AA619207, mouse liver, 8 wk in diet vs CON): −1.7 fold
average fold change in specific mRNA: EST (GenBank AA959954, mouse liver, 8 wk in diet vs CON): −1.5 fold
average fold change in specific mRNA: Amine N-sulfotransferase (GenBank AF026073, mouse liver, 8 wk in diet vs CON): −1.5 fold
average fold change in specific mRNA: EST (GenBank AI266885, mouse liver, 8 wk in diet vs CON): −2.0 fold
average fold change in specific mRNA: Cathepsin C (second time) (GenBank AI842667, mouse liver, 8 wk in diet vs CON): 1.7 fold
average fold change in specific mRNA: Pre-B-cell colony-enhancing factor (GenBank AI852144, mouse liver, 8 wk in diet vs CON): −1.5 fold
average fold change in specific mRNA: Regulator of G-protein signaling 16 (GenBank AV349152, mouse liver, 8 wk in diet vs CON): 1.6 fold
average fold change in specific mRNA: Quiescin Q6 (GenBank AW04575, mouse liver, 8 wk in diet vs CON): 1.6 fold
average fold change in specific mRNA: EST (GenBank AW060549, mouse liver, 8 wk in diet vs CON): −1.7 fold
average fold change in specific mRNA: Ectonucleotide pyrophosphatase/phosphodiesterase 2 (GenBank AW122933, mouse liver, 8 wk in diet vs CON): −1.8 fold
average fold change in specific mRNA: Quiescin Q6 (GenBank AW123556, mouse liver, 8 wk in diet vs CON): 1.7 fold
average fold change in specific mRNA: Glutathione S-transferase, alpha 2 (Yc2) (GenBank J03958, mouse liver, 8 wk in diet vs CON): −1.7 fold
average fold change in specific mRNA: Metallothionein 2 (GenBank K02236, mouse liver, 8 wk in diet vs CON): 1.6 fold
average fold change in specific mRNA: Macrophage expressed gene 1 (GenBank L20315, mouse liver, 8 wk in diet vs CON): −1.6 fold
average fold change in specific mRNA: Actin, gamma, cytoplasmic (GenBank M21495, mouse liver, 8 wk in diet vs CON): −1.8 fold
average fold change in specific mRNA: keratin complex 1, acidic, gene 18 (GenBank M22832, mouse liver, 8 wk in diet vs CON): −1.6 fold
average fold change in specific mRNA: Tubulin, beta 2 (GenBank M28739, mouse liver, 8 wk in diet vs CON): −1.5 fold
average fold change in specific mRNA: Inhibitor of DNA binding 3 (GenBank M60523, mouse liver, 8 wk in diet vs CON): −1.7 fold
average fold change in specific mRNA: Apolipoprotein A-IV (GenBank M64248, mouse liver, 8 wk in diet vs CON): −3.4 fold
average fold change in specific mRNA: Activating transcription factor 3 (GenBank U19118, mouse liver, 8 wk in diet vs CON): −1.5 fold
average fold change in specific mRNA: Cathepsin C (GenBank U74683, mouse liver, 8 wk in diet vs CON): 1.7 fold
average fold change in specific mRNA: Suppressor of cytokine signaling 2 (Table 6: Cytokine inducible SH2-containing protein 2) (GenBank U88327, mouse liver, 8 wk in diet vs CON): 1.7 fold
average fold change in specific mRNA: Flavin containing monooxygenase 5 (GenBank U90535, mouse liver, 8 wk in diet vs CON): −1.5 fold
average fold change in specific mRNA: Regulator of G-protein signaling 16 (GenBank U94828, mouse liver, 8 wk in diet vs CON): 1.8 fold
average fold change in specific mRNA: Metallothionein 1 (GenBank V00835, mouse liver, 8 wk in diet vs CON): 1.7 fold
average fold change in specific mRNA: Keratin complex 2, basic, gene 8 (GenBank X15662, mouse liver, 8 wk in diet vs CON): −1.7 fold
average fold change in specific mRNA: Lectin, galactose binding, soluble 1 (GenBank X15986, mouse liver, 8 wk in diet vs CON): −1.8 fold
average fold change in specific mRNA: Arylsulfatase A (GenBank X73230, mouse liver, 8 wk in diet vs CON): −1.6 fold
average fold change in specific mRNA: Insulin-like growth factor binding protein 1 (GenBank X81579, mouse liver, 8 wk in diet vs CON): −1.6 fold
average fold change in specific mRNA: Thyroid hormone responsive SPOT14 homolog (Rattus) (GenBank X95279, mouse liver, 8 wk in diet vs CON): −1.5 fold
average fold change in specific mRNA: Calcium binding protein, intestinal (GenBank Y00884, mouse liver, 8 wk in diet vs CON): 1.6 fold
genes altered by drug and changed similarly by LT-CR (mouse liver, 8 weeks): 16 genes
genes altered by drug and changed similarly by ST-CR (mouse liver, 8 weeks): 17 genes
genes whose drug-induced change is a subset of changes induced by either LT- or ST-CR (mouse liver, 8 weeks): 21 genes
percentage of drug-altered genes altered by both LT-CR and ST-CR (mouse liver, 8 weeks): 27%
percentage of drug-altered genes changed similarly by LT-CR (mouse liver, 8 weeks): 36%
number of genes with significantly changed expression (mouse liver, 8 weeks of treatment vs CON): 44 genes
genes with changed expression identical to changes caused by LT-CR (mouse liver, 8 weeks, FIG. 2 category LT-CR only): 4 genes
genes with changed expression identical to changes caused by ST-CR (mouse liver, 8 weeks, FIG. 2 category ST-CR only): 5 genes
genes with changed expression identical to changes caused by LT-CR and ST-CR (mouse liver, 8 weeks, altered by both LT-CR and ST-CR): 12 genes
percentage of drug-specific effects (mouse liver, 8 weeks, changes not affected by LT- or ST-CR): 41%
genes with changed expression due to the drug alone (drug-specific changes) (mouse liver, 8 weeks, not affected by LT- or ST-CR): 18 genes
genes with changed expression in the opposite direction compared to CR (mouse liver, 8 weeks, opposite to LT-CR): 5 genes
average fold change in specific mRNA: DNA cross-link repair 1A, PSO2 homolog (S. cereviciae) (mouse, in vivo): −1.6 fold

Like-named read-outs stand apart in the source and are kept apart here.
